The entries are a selection whose mix differs from that of the whole data set. The source made the active and inactive calls.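 Rule for the calls: active = activation above the mean activation of all tested compounds plus 3 SD, per screening run (cut at about 20% in these data); inactive = the rest.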

Sequences of proteins named here, by UniProt entry; tags and fusion partners are left off.
UniProt P37288, whole entry, looked up: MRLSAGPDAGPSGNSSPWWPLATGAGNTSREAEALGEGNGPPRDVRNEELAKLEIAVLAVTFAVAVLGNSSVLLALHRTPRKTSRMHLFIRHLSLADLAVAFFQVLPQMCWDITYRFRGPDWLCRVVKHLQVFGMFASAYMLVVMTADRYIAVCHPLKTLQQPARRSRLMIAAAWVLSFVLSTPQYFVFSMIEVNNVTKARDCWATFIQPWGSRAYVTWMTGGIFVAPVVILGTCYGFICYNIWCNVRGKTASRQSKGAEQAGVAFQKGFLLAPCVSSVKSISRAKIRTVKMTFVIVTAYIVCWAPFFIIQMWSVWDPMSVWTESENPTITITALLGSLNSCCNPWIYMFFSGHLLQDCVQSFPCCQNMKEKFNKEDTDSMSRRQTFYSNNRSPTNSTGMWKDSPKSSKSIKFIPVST

In PubChem BioAssay AID2797 (The Scripps Research Institute Molecular Screening Center, 2010) one finds activation data, which are given here for 27 molecules.

This experiment addresses Vasopressin V1a receptor (Homo sapiens) (UniProt P37288). The experiment is described as follows: V1R activation via calcium rise – fluorescence, CHO-V1R cells, counter-screen for OXTR agonist project, primary screen (AID 2797).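 Note: signal is peak over basal fluorescence ratio across a 100 second FLIPR read.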 The settings on record: Fluo-8 calcium fluorescence, agonist mode, at 3 µM, active compounds read high, 0% DMSO, 100% 3 nM vasopressin. On the technique in general: A counterscreen serves to expose hits that act by an unwanted route or on another target.
As for `Cc1ccc(NP(=O)(Oc2ccccc2)Oc2ccccc2)nc1`, the activation was inactive: -1.06%.

In the case of `O=[N+]([O-])c1cccc2n[nH]nc12`, the activation is inactive: 0.23%.

For `CC(=O)N1C2C3N(C(C)=O)C1C1N(C(C)=O)C(C(N1C(C)=O)N3C(C)=O)N2C(C)=O`, the activation is inactive: 0.92%.

For `CCN(/C(=N/P(=O)(N1CCOCC1)N1CCOCC1)N1CCOCC1)c1ccc(OC)cc1`, the activation is inactive: 0.07%.

Consider `C[N+]1=C2C=CC=CC=C2SC12C([N+](=O)[O-])=CC([N+](=O)[O-])=C[C-]2[N+](=O)[O-]` (configuration not stated), for which the activation was inactive: 3.12%.

Regarding `Nc1ccc([As](=O)(O)c2ccc(N)cc2)cc1`, the activation was inactive: -0.05%.

With `CC1CCN(C(=O)Oc2c(Cl)cc(Cl)c3cccnc23)CC1`, the activation was inactive: -1.5%.

Turning to `CN(C)C(=O)OCCc1n(C)cc[n+]1C`, the activation was inactive: -0.16%.

In the case of `CC(C)=N/N=C(\N)N[N+](=O)[O-]`, the activation was inactive: 1.76%.

In the case of `COP1(=S)c2c(C)nn(CCC#N)c2N=C(c2ccc(F)cc2)N1C` (configuration not stated), the activation was inactive: -0.01%.

`O=C(Nc1ccncc1[N+](=O)[O-])c1ccc([N+](=O)[O-])cc1[N+](=O)[O-]`: the activation was inactive: 1.6%.

Regarding `O=C(COc1ccccc1)OC1CN2CCC1CC2` (configuration not stated), the activation is inactive: 0.54%.

On to `O=C(OC1CN2CCC1CC2)c1cccc([N+](=O)[O-])c1` (configuration not stated), for which the activation is inactive: -0.42%.

In the case of `CCOC(=O)c1ccc(NC(=O)C(C)(CCl)SC)cc1` (configuration not stated), the activation is inactive: -0.41%.

For the molecule `CCC(C)N(CC(C)C)C(=S)SC(NC(C)=O)C(Cl)(Cl)Cl` (configuration not stated), the activation is inactive: -0.56%.

Consider `CCOC(=O)Nc1ccc([As](=O)(O)O)c(O)c1`, for which the activation is inactive: 0.44%.

As for `Cc1cc(SC(NC(=O)c2ccccc2)C(Cl)(Cl)Cl)nc(C(C)C)n1` (configuration not stated), the activation was inactive: 0.11%.

For `CCOC(=O)Nc1cccc([As](=O)(O)O)c1`, the activation was inactive: 0.39%.

Turning to `O=P(Nc1ccccn1)(c1cccc2ccccc12)c1cccc2ccccc12`, the activation is inactive: 1.91%.

With `Cc1cc(SC(NC=O)C(Cl)(Cl)Cl)ncn1` (configuration not stated), the activation is inactive: -0.38%.

Regarding `COc1cc(C(=O)NCC2(N3CCOCC3)CCCCC2)ccc1OCC(C)C`, the activation is inactive: -0.8%.

Consider `C[As](=O)(O)c1cccc(C(=O)O)c1`, for which the activation was inactive: 0.5%.

For the molecule `O=[As](O)(c1ccc(O)cc1)c1ccccc1O`, the activation was inactive: 0.77%.

With `CC(Cc1ccc(O)cc1)NCC(O)c1cc(O)cc(O)c1` (configuration not stated), the activation is inactive: 0.98%.

`Cc1ccc(OP(=O)(Nc2ccc([N+](=O)[O-])cn2)Oc2ccc(C)cc2)cc1`: the activation was inactive: -0.66%.

In the case of `Cc1ccc2nc3c(c(C)c2c1)CC(C(Cl)Cl)S3` (configuration not stated), the activation is inactive: -1.51%.

Take `ClCCSc1nnc(-c2cccnc2)o1`: the activation was inactive: 1.29%.
